What follows are compounds tested against KDM5B (Homo sapiens, UniProt Q9UGL1) (assay: KDM5B alphascreen activity assay). Conditions: Table 3, against KDM5B (FIG. 9A-9B).
Type: biochemical

By UniProt entry, the sequences of proteins in these tests, tags left out.
UniProt Q9UGL1, whole entry: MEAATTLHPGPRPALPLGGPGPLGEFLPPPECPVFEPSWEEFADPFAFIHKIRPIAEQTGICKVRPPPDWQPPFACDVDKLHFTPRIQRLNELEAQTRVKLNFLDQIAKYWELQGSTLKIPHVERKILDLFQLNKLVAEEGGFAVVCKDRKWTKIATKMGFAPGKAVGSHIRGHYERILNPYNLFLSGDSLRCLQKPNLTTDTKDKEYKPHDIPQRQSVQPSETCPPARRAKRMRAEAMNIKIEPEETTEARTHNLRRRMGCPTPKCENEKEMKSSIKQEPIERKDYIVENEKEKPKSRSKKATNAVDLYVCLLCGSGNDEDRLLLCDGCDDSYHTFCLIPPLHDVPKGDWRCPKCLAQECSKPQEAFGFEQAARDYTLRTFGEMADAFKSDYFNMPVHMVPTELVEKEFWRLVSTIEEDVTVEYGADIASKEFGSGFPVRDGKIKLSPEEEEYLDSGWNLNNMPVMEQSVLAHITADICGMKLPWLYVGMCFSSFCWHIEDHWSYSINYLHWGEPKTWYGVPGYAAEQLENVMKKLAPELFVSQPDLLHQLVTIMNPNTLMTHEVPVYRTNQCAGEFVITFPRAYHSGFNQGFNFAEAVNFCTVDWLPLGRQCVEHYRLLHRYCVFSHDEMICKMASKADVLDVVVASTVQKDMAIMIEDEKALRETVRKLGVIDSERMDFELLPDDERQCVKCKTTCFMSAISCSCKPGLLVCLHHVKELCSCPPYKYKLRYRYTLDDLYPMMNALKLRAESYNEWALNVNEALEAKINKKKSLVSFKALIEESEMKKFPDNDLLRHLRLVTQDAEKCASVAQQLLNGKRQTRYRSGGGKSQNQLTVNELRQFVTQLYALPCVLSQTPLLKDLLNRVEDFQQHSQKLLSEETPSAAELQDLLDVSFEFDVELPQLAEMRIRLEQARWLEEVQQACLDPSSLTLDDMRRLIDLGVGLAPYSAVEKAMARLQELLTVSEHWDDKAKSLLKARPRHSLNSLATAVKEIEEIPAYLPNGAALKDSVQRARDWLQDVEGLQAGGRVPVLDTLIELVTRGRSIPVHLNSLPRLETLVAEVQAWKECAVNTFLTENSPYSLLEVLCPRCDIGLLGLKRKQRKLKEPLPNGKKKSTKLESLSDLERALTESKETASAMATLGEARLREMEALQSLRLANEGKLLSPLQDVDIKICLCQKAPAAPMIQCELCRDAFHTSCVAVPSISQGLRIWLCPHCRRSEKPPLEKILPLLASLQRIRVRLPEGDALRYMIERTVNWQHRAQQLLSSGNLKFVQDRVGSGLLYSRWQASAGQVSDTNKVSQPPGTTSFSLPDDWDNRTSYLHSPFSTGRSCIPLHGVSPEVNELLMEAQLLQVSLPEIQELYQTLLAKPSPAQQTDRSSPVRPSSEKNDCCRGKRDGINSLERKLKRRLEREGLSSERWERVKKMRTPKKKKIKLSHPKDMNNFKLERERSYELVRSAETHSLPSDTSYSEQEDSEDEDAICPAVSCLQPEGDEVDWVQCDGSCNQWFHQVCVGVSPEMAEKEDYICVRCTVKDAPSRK

IC50 [nM] | SMILES
940 | CCN(CCN(C)C)C(=O)CNCc1cc(C(=O)Oc2ccccc2OC)ccn1
460 | CCN(CCN(C)C)C(=O)CNCc1cc(C(=O)Nc2c(OC)cccc2OC)ccn1
6750 | CCOC(=O)c1ccnc(CNCC(=O)N(C)CCN(C)C)c1
1530 | CCOC(=O)c1ccnc(CNCC(=O)N(CCN(C)C)C2CC2)c1
390 | CCN(CCN(C)C)C(=O)CNCc1cc(C(=O)Oc2c(OC)cccc2OC)ccn1
520 | CCN(CCN(C)C)C(=O)CNCc1cc(C(=O)Oc2ccccc2OC(C)C)ccn1
890 | CC(C)Oc1cccc(OC(C)C)c1OC(=O)c1ccnc(CNCC(=O)N(CCN(C)C)C2CC2)c1
290 | CCN(CCN(C)C)C(=O)CNCc1cc(C(=O)OCc2oc(=O)oc2C)ccn1
1040 | CC(C)Oc1cccc(OC(C)C)c1OC(=O)c1ccnc(CNCC(=O)N(C)CCN(C)C)c1

— patent publication US20230382865A1, “HISTONE DEMETHYLASE 5 INHIBITORS AND USES THEREOF” (DANA-FARBER CANCER INSTITUTE, INC., priority 2018, published 2023)
